From ChEMBL document CHEMBL1148572

Protein sequences, listed by entry. Tags and fused reporters are not part of them.
UniProt P30994, whole entry: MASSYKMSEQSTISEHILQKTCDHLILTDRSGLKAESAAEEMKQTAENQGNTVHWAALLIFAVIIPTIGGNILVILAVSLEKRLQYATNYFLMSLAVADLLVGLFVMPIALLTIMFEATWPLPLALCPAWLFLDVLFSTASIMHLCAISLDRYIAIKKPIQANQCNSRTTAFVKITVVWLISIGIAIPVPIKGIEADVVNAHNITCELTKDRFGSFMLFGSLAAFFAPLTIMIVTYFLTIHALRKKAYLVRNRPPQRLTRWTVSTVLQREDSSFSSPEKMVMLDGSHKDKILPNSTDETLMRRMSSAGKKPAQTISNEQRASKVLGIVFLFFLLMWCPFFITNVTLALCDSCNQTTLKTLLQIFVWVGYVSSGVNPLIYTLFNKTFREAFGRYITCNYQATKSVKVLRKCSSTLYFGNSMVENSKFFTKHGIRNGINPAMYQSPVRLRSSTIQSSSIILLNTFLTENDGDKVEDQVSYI

Assays:
[1] = biological target: T1, 5-hydroxytryptamine receptor 2C (Rattus norvegicus, UniProt P08909)
T1 sequence (P08909 whole entry): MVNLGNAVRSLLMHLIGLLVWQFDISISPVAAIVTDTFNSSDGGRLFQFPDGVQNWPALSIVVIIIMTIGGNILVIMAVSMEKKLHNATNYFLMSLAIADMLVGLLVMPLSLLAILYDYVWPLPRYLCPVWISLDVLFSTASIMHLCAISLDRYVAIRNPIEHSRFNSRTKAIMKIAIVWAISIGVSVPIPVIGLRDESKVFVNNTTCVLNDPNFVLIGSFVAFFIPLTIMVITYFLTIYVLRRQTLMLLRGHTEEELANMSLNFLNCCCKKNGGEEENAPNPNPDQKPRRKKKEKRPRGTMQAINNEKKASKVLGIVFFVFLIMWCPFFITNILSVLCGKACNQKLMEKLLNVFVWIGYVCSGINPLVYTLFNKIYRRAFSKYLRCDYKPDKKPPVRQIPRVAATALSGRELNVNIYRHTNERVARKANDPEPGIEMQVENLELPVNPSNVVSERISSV

[2] = biological target: 5-hydroxytryptamine receptor 2B (Rattus norvegicus, UniProt P30994)

COc1ccc2[nH]cc(CCN(C)C)c2c1 [MEBUFOTENIN]
EC50 [1]: 77.8 nM
EC50 [2]: 240 nM
